# Columns and labels:
# Amino acid sequences for entries named in this document (tags omitted). Residues count along the entry.
# UniProt P09619, 33-1106: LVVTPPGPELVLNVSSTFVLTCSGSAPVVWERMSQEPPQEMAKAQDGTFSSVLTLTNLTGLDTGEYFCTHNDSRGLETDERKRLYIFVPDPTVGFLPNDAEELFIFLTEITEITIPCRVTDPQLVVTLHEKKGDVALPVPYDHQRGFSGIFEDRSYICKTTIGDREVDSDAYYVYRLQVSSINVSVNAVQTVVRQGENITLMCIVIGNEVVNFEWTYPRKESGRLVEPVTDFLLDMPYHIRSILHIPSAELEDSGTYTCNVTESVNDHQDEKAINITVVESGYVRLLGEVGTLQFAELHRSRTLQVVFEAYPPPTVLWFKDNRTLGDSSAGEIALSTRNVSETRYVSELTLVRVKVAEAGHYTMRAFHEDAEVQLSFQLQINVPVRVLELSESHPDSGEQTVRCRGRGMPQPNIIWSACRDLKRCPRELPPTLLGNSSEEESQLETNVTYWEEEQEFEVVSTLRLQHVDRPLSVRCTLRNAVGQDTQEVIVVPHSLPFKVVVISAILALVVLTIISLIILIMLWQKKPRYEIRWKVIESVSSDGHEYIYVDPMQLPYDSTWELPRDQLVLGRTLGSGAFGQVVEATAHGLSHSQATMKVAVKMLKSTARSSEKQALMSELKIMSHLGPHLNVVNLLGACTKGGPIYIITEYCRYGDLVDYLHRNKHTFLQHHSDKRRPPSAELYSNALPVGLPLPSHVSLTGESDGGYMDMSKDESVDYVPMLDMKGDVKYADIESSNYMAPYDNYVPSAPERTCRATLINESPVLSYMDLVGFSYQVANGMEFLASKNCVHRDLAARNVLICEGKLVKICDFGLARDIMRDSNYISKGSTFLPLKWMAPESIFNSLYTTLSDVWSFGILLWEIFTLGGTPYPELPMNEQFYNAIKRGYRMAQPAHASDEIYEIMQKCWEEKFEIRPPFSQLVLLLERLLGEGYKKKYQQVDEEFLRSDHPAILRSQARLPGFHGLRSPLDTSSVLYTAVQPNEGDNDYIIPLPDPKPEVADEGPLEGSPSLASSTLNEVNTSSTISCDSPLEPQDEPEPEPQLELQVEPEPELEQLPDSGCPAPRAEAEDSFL
# [1] = molecular target: pPDGFRβ in normal human dermal fibroblasts (NHDF) (Homo sapiens (Human), UniProt P09619); test: Cellular pPDGFRβ inhibition assay; assay type: cell-based; conditions: NHDF stimulated with 50 ng/ml PDGF-BB, 1 h
# Procedure: Normal human dermal fibroblasts (NHDF; Promocell, Cat. No. C-12300; passage 2-7) were sown in a quantity of 7×10^3 cells/well in 48-well plates (Falcon™ MultiWell Cell Culture Plates, Falcon, Cat. No. B3668-3B) and incubated at 37° C., 5% CO2 and 95% relative air humidity overnight in minimal medium supplemented with GlutaMAX™ (Minimum Essential Medium, Gibco, Cat. No. 41090-028), 10% heat-inactivated (30 min at 56° C.) foetal calf serum (FBS; BioWhittaker, Lonza, Cat. No. DE14-801F) and 5 μg/ml insulin (Insulin solution human, Sigma, Cat. No. 19278). The next day, the GlutaMAX™-supplemented minimal medium was replaced by the Opti-MEM® I Reduced Serum Medium (Gibco, Cat. No. 31985-047) and incubated again under the conditions described above for 3 h. Thereafter, 50 ng/ml recombinant human PDGF-BB (R&D Systems, Cat. No. 220-BB-050) and a dilution series of the test substances to be examined in DMSO were added to the cells. The total volume per well was 100 μl. […] The lysed cell samples were either stored at −20° C. or analysed immediately after the lysis in a Meso Scale SECTOR® Imager 2400 according to the abovementioned manufacturer's instructions. […] The IC50 values were calculated by employing the nonlinear regression (curve fit) function of GraphPad Prism 6 (La Jolla, Calif., USA).
# human PDGFRβ = human PDGFRβ (Homo sapiens (Human), UniProt P09619); test: PDGFRβ kinase assay (PDGFRβ-HTRF); assay type: biochemical; conditions: 10 μM ATP; some mean values from multiple determinations
# Procedure: The PDGFRβ-inhibitory activity of the inventive compounds was determined in the PDGFRβ-HTRF assay described hereinafter.
# The IC50 values were calculated by a 4-parameter fit.
IC50 [1],IC50 (human PDGFRβ),Structure (SMILES)
28.7 nM,,"Cc1cc(F)c(Nc2ccnc3c2C(=O)Nc2cc(CN4CCCC(CCO)C4)ccc2N3)cc1O (racemic) [Example 58, rac-4-[(2-Fluoro-5-hydroxy-4-methylphenyl)amino]-8-{[3-(2-hydroxyethyl)piperidin-1-yl]methyl}-6,11-dihydro-5H-pyrido[2,3-b][1,5]benzodiazepin-5-one]"
29.7 nM,1.1 nM,"CCN(CCO)Cc1ccc2c(c1)NC(=O)c1c(Nc3cc(O)c(C)cc3F)ccnc1N2 [Example 52, 8-{[Ethyl(2-hydroxyethyl)amino]methyl}-4-[(2-fluoro-5-hydroxy-4-methylphenyl)amino]-6,11-dihydro-5H-pyrido[2,3-b][1,5]benzodiazepin-5-one]"

# — patent US10047096B2, “Substituted pyridobenzodiazepinone-derivatives and use thereof” (Bayer Pharma Aktiengesellschaft, priority 2014, dated 2018)
